Results published in patent publication US20230048888A1, “USE OF TRIAZOLOTRIAZINE DERIVATIVE IN TREATMENT OF DISEASES” (ZHEJIANG VIMGREEN PHARMACEUTICALS, LTD., priority 2019, published 2023).

Legend:
[1] = molecular target: T1, human ADORA2B (Homo sapiens, UniProt P29275); test: Calcium flow test (FLIPR), ADORA2B stably transfected HEK293; type: cell-based
T1 construct: host or cells: HEK293
T1 sequence (P29275 1-332): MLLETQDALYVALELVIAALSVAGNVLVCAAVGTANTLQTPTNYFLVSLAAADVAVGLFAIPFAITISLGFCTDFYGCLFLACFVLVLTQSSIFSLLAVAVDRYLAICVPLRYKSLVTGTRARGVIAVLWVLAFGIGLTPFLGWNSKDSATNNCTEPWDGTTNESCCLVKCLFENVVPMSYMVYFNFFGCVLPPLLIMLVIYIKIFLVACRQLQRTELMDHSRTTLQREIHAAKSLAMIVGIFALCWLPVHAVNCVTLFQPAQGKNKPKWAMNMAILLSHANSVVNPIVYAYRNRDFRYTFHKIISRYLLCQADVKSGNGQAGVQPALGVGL

[2] = molecular target: T2, Human adenosine ADORA2B receptor membrane protein (Homo sapiens, UniProt P29275); test: Radioisotope ligand competitive binding, ADORA2B ([3H] DPCPX); conditions: ADORA2B (IC50, nM, n = 3), binding test
T2 construct: purchased PerkinElmer ES-013-M400UA
T2 sequence (P29275 1-332): T1 sequence (P29275 1-332)

What does the source list for Nc1nc2ccc(Cl)cc2c2nc(-c3ccco3)nn12 [CGS-15943, reference compound]?
IC50 [1]: 7.35 ± 2.12 nM; IC50 ([2]; Table 10 (IC50)): 4.71 ± 0.9 nM; IC50 ([2]; Table 11): 4.24 nM
